{
  "sequences": {"note": "The chains behind the UniProt entries cited, without tags or fusion partners. Residues count along the entry.", "UniProt P15692, 1-191 isoform P15692-4": "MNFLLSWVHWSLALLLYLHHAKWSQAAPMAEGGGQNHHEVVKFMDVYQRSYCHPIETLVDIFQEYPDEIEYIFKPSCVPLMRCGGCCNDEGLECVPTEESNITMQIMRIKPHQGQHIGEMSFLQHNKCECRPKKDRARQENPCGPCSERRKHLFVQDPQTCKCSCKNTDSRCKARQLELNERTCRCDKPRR"},
  "source": "paper PMC4973850",
  "about": "“Molecular structure‐function relationship of dietary polyphenols for inhibiting VEGF‐induced VEGFR‐2 activity” (Molecular Nutrition & Food Research, 2015)",
  "biological_target": "T1, VEGF (human recombinant VEGFA165); VEGF‐induced VEGFR‐2 activation in HUVECs (Homo sapiens, UniProt P15692)",
  "T1 construct": "purchased R&D Systems, Abingdon, UK",
  "assay": "Inhibition of VEGF‐induced VEGFR‐2 phosphorylation in HUVECs after pre‐incubating VEGF with polyphenol (Phospho‐VEGFR‐2 Tyr1175 ELISA);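 further: sandwich ELISA of VEGFR-2 phosphorylated at Tyr1175 in lysates of confluent HUVECs, with VEGF alone and DMSO vehicle (≤0.1%) as control incubations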",
  "format": "cell-based",
  "details": "VEGF 25 ng/mL pre‐incubated 5 min with polyphenol, then HUVECs 5 min; phospho‐VEGFR‐2 ELISA; 95% confidence intervals in parentheses",
  "data": [
    {"substance": "catechin gallate [CG]", "values": [
      {"measurement": "IC50 (μM)", "result": "0.094 (0.074–0.097) μM"}
    ]}
  ]
}
